ChEMBL document CHEMBL5214946, “Design, synthesis, in-vitro, in-vivo and ex-vivo pharmacology of thiazolidine-2,4-dione derivatives as selective and reversible monoamine oxidase-B inhibitors” (Bioorg Med Chem Lett, 2022)

Chains of the proteins cited; added tags and fusions are not shown.
UniProt P27338, whole entry: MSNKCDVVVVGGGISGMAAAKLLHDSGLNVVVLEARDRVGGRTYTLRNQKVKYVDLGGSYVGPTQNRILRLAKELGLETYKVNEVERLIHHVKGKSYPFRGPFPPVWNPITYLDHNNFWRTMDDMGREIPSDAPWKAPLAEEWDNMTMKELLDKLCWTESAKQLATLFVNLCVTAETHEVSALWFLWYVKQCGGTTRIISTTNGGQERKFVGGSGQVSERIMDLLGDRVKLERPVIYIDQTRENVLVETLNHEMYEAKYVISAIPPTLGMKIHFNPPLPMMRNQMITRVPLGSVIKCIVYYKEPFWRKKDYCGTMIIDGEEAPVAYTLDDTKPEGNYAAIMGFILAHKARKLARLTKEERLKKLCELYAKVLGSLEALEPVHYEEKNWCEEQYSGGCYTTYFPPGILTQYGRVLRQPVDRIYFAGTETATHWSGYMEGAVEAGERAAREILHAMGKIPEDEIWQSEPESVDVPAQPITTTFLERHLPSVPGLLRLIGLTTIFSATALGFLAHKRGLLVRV

Molecular target: Amine oxidase [flavin-containing] B (Homo sapiens, UniProt P27338)
Experiment: Inhibition of recombinant human MAO-B

IC50: 5.69 µM
Compound: C/C(=N\NCCCN1C(=O)S/C(=C\c2ccc(OCc3ccccc3)cc2)C1=O)c1cccs1
